scFv variants of Ab-91 (heavy chain) against a SARS-CoV-2 spike peptide

The measurements come from Engelhart et al. 2022 (doi:10.1038/s41597-022-01779-4) through the FLAb antibody collection.

Binding partner: SARS-CoV-2 spike HR2 peptide, sequence PDVDLGDISGINAS.

Ab-91 is the parent antibody, in scFv form: VL, then the linker GGGGSGGGGSGGGGS, then VH. The light chain is unchanged in all variants.
VL: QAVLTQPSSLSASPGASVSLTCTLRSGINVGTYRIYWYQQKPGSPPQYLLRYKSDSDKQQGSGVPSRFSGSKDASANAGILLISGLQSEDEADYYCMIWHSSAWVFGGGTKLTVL
VH: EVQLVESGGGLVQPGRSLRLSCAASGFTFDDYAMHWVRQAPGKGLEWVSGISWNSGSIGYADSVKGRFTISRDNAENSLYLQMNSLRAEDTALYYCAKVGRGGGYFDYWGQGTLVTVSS

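The library (AAYL51) carries one to three amino acid substitutions per variant, with no insertions or deletions. The assay is AlphaSeq: two haploid yeast populations carry antibody and antigen on their surface. Mating (16 h, 30 °C) was followed by selection of diploids and sequencing of their barcodes. The ratio of observed to expected reads was calibrated, replicate by replicate, on BCL2-family standards whose Kd was known from biolayer interferometry. The assay was run in three technical replicates.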

Substitutions are numbered in sequence along the VH above, starting at 1 (not Kabat). Only single mutants are listed, position by position. Values are log10 of the apparent Kd in nM; lower means stronger binding. A mean of the replicates is given; it leaves out those without a signal. A pair that was not seen in any replicate is written "not detected"; this usually means weak binding, but a binder can also be missed.

changes,mean log10 Kd (nM),detected
G26A,4.36,1 of 3
G26N,not detected,0 of 3
G26L,not detected,0 of 3
G26R,4.17,2 of 3
G26Q,not detected,0 of 3
G26H,2.65,3 of 3
G26C,1.68,3 of 3
G26Y,1.89,3 of 3
G26D,4.94,2 of 3
G26S,1.48,3 of 3
G26I,not detected,0 of 3
G26K,4.04,3 of 3
G26T,5.10,1 of 3
G26P,5.66,1 of 3
G26E,not detected,0 of 3
G26W,not detected,0 of 3
F27L,3.49,3 of 3
F27W,3.74,1 of 3
F27N,4.39,2 of 3
F27T,3.48,2 of 3
F27Q,4.99,3 of 3
F27K,not detected,0 of 3
F27A,4.77,3 of 3
F27M,4.17,3 of 3
F27D,not detected,0 of 3
F27E,1.62,3 of 3
F27P,1.94,3 of 3
F27I,3.81,3 of 3
F27G,2.68,3 of 3
F27R,not detected,0 of 3
T28F,4.86,2 of 3
T28Q,1.27,3 of 3
T28L,6.26,1 of 3
T28M,1.46,3 of 3
T28I,5.30,3 of 3
T28G,5.21,2 of 3
T28K,1.18,3 of 3
T28W,1.01,3 of 3
T28A,3.74,3 of 3
T28R,0.82,3 of 3
T28E,2.05,3 of 3
T28N,2.22,3 of 3
T28S,3.61,1 of 3
T28Y,1.63,3 of 3
T28D,2.49,2 of 3
T28H,0.57,3 of 3
T28V,1.36,3 of 3
F29W,4.34,1 of 3
F29M,3.67,1 of 3
F29I,1.69,3 of 3
F29R,4.96,1 of 3
F29V,3.19,1 of 3
F29E,not detected,0 of 3
F29Y,3.11,3 of 3
F29N,not detected,0 of 3
F29T,5.06,2 of 3
F29C,not detected,0 of 3
F29H,5.29,1 of 3
F29S,4.01,1 of 3

Top 5 of the variants detected in all replicates, tightest first:

| changes | mean log10 Kd (nM) | detected |
|---|---|---|
| T28H | 0.57 | 3 of 3 |
| T28R | 0.82 | 3 of 3 |
| T28W | 1.01 | 3 of 3 |
| T28K | 1.18 | 3 of 3 |
| T28Q | 1.27 | 3 of 3 |

Background: pairings of library AAYL51 with three empty control strains gave a value in 21% of cases (median 4.54, 5th percentile 3.26). Values in that range, when seen in few replicates, are hard to tell from nonspecific mating.